From paper PMC7444660 (ACS chemical neuroscience, 2020) come the findings set out here.

Protein sequences, listed by entry. Tags and fused reporters are not part of them. Residues count along the entry.
UniProt Q08499, 1-748 isoform Q08499-11 S129D/S654A/S656A: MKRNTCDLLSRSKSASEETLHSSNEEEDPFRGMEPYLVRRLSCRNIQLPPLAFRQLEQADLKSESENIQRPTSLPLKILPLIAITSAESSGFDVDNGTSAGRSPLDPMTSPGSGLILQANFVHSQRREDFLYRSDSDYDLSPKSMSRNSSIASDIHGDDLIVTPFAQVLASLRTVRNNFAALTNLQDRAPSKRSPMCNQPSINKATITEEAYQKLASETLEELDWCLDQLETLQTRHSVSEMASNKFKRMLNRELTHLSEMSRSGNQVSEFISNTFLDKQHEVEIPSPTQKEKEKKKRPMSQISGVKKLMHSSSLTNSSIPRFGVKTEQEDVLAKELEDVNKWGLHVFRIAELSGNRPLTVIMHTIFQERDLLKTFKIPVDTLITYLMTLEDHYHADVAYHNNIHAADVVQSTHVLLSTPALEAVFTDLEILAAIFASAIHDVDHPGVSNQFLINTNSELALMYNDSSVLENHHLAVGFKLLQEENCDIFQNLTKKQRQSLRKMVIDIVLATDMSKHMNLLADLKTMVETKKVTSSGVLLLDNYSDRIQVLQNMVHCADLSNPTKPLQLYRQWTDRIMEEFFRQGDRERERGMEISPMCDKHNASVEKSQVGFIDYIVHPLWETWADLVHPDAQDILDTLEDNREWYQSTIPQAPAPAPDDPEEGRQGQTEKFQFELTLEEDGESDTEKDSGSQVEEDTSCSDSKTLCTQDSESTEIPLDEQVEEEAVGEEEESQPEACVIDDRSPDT

pIC50: −log10 of the molar value.

Usually pIC50 stands for the IC50 on a negative log10 scale, so that one unit is a factor of ten. The low end stands for a large IC50, the high end for a small IC50.

The target of this experiment is Human PDE4D7* (S129D) (Homo sapiens, UniProt Q08499, S190D/S715A/S717A). Put plainly: PDE4 enzyme inhibition assay.

For the molecule `COc1ccc(Cc2ccncc2)nc1-c1cccc(Cl)c1` [Compound 3, 2-(3-chlorophenyl)-3-methoxy-6-[(pyridin-4-yl)methyl]pyridine], the pIC50 was 8.29.

Molecule `COc1ccc(Cc2ccncc2)nc1-c1cccc([N+](=O)[O-])c1` [Compound 5, 3-methoxy-2-(3-nitrophenyl)-6-[(pyridin-4-yl)methyl]pyridine] gave a pIC50 of 8.55.

As for `COc1ccc(Cc2cn[nH]c2)nc1-c1cccc([N+](=O)[O-])c1` [Compound 6], the pIC50 is 8.46 and the “Selectivity for PDE4D* over PDE4B” value is on record as 320.
